Molecular target: PA tag antigen fused with maltose-binding protein (MBP-PA) (human)
Experiment: BLI

wild-type anti-PA tag Fab (NZ-1)
Kd: 2.06 nM | koff: 0.00055 s⁻¹

Source: article doi:10.1101/2024.09.13.612811 (bioRxiv, 2024)
